B1: IFN-β: interferon-β as worded without preparation; first-line therapy for MS; in the examples rIFNβ in vitro, IFNβ-1b in vivo (protein, UniProt P01574 22-187, looked up)
Interferon beta: MSYNLLGFLQRSSNFQCQKLLWQLNGRLEYCLKDRMNFDIPEEIKQLQQFQKEDAALTIYEMLQNIFAIFRQDSSSTGWNETIVENLLANVYHQINHLKTVLEEKLEKEDFTRGKLMSSLHLKRYYGRILHYLKAKEYSHCAWTIVRVEILRNFYFINRLTGYLRN
B2: IFNβ-1b: human recombinant IFN-β-1b (Betaseron®), produced in E. coli (protein, UniProt P01574 22-187, looked up)
Interferon beta: B1 Interferon beta

Key:
NLRP3 inflammasome = NLRP3 inflammasome activity in vivo in EAE mice (serum IL-1β, splenocyte IL-1β, caspase-1 p20); parameters: species or system mouse
Method: EAE was induced in Asc−/−, Nlrp3−/−, and wild-type mice. For EAE induction, MOG35-55 peptide (100 μg/mouse) was emulsified with CFA (100 μl/mouse, including 200 μg of heat-killed Mycobacteria), and subcutaneously injected in the flanks of mice on day 0. Mice were also i.p. injected with Pertussis toxin (200 ng/200 μl PBS/mouse) on days 0 and 2. Representative data from one of three independent experiments with disease scores presented as mean±SEM for each group (n=5). (FIGS. 3(b), (c)). […] Numbered squares indicate representative regions of cell infiltration (H&E) and demyelination (LFB) shown at high magnification. Arrowheads indicate regions of demyelination. The NLRP3-inflammasome is activated during EAE progression. Serum IL-1β (FIG. 3(e)) and IL-18 (FIG. 3(f)) levels in wild-type, Asc−/−, and Nlrp3−/− mice were measured by ELISA using standard techniques on days 9 and 17 after EAE induction. IL-1β production was greater in splenocytes isolated from wild-type than Asc−/− mice 9 days after EAE induction. Cells were treated with Ultrapure LPS (100 ng/ml) alone for 24 hours, and secreted IL-1β was measured in the cell culture media using standard techniques.
Caspase-1 p20 and β-actin were detected in 24-hr total splenocyte culture supernatants and cell lysates, respectively, by western blot using standard techniques. […]

passive EAE = test: Passive EAE by adoptive transfer of CD4+ T cells into Rag2-/- mice; assay type: in vivo, mouse
NADPH oxidase = test: p47phox foci (active NADPH oxidase) in bone marrow-derived macrophages, confocal microscopy; assay type: cell-based, mouse; conditions: WT BMMs; 24 h pretreatment, then 5 mM ATP 1 h
Method: IFNAR signaling inhibits ROS production by inhibiting NADPH oxidase activity. […] Cells incubated with and without IFN-β pretreatment for 24 hours were then exposed to 5 mM ATP for 1 hour, fixed, and probed with a FITC-conjugated anti-p47^phox antibody to detect foci representing active NADPH oxidase.

Vav1 = Vav1 expression in bone marrow-derived macrophages (western blot); assay type: cell-based, mouse; conditions: WT BMMs; 1000 units/ml 24 h pretreatment, then 5 mM ATP 1 h
Method: (§1) Bone marrow-derived macrophages from wild-type mice were pretreated with 1000 units/ml rIFNα for 24 hours before treatment with 5 mM ATP for one hour. Cell lysates were prepared for western blot as described above and probed for Vav1 expression using a using a rabbit anti-Vav1 antibody (Cell Signaling Technology), followed by an HRP-conjugated donkey anti-rabbit antibody (Pierce) and chemiluminescent detection (ECL reagents, GE Healthcare). The same membranes were stripped and probed again by western blot to detect β-actin, and Vav1 signal densitometry for each sample was normalized to β-actin using NIH Image/Image J software. […] Bone marrow-derived macrophages obtained from wild-type mice were pretreated with 1,000 units/ml rIFNα or IFNβ for 24 hours before treatment with 5 mM ATP for 5, 10, or 15 minutes. Cells were then lysed, and total GTP-Rac1 was compared to GTP-Rac1 by western blot first using an antibody specific for GTP-Rac1, followed by membrane stripping and probing with an antibody recognizing total Rac1. GTP-Rac1 signal densitometry for each sample was normalized to total Rac1 using NIH Image/Image J software.

SOCS-1 = test: SOCS-1, IP10 and Mx1 mRNA in bone marrow-derived macrophages (quantitative RT-PCR); assay type: cell-based; conditions: WT BMMs; 1,000 units/ml recombinant mouse IFN-β or 10,000 units/ml IFN-β-1b, 6 h
Method: IFN-β mediates its effects on NADPH oxidase activity through SOCS-1. First, IFN-β induces SOCS-1 expression. Bone marrow-derived macrophages derived from wild-type mice were incubated with no treatment, 1,000 units/ml recombinant mouse IFN-β, or 10,000 units/ml human recombinant IFN-β-1b (Betaseron®) for 6 hours. Total RNA was purified from each group of cells using TRIzol® reagent (Invitrogen™), and SOCS-1, IP10, and Mx1 mRNA in each sample was measured by quantitative RT-PCR, and values were normalized to the sample with no IFN-β exposure. […] In addition, a decrease in SOCS-1 expression increases cellular levels of Vav1 and GTP-Rac1. Mouse bone marrow-derived macrophages were transduced with a lentiviral expression vector expressing a shRNA that decreases SOCS-1 expression (see FIG. 2(g)). Four hours later, rIFN-β was added (1,000 units/ml), and the cells were incubated for 24 hours. […] SOCS-1 also mediates inhibition of ROS and IL-1β production by IFN-β. Bone marrow-derived macrophages were treated with 100 ng/ml Ultrapure LPS and 5 mM ATP, with or without lentiviral transduction with the anti-SOCS-1 shRNA. ROS was detected by flow cytometry as described, see FIG. 2(k), and IL-1β secretion was detected by ELISA using standard techniques, see FIG. 2(l). In addition, SOCS-1 associates with Rac1-GTP as detected by immunoprecipitation. […]

multiple sclerosis [1] = test: Clinical response of MS patients to IFN-β therapy; assay type: in vivo, human; conditions: clinical data, not shown
multiple sclerosis [2] = conditions: background statement; cited from earlier work
NLRP3-independent EAE = NLRP3-independent EAE in WT mice by aggressive induction regimen; assay type: in vivo, mouse; conditions: aggressive induction (MOG day 0 and 7, 400 μg Mtb)
GTP-Rac1 = GTP-Rac1 level in bone marrow-derived macrophages (western blot); assay type: cell-based, mouse; conditions: WT BMMs; 1,000 units/ml 24 h pretreatment, then 5 mM ATP 5, 10 or 15 min
Method: as §1

[3] = test system: experimental autoimmune encephalomyelitis; test: EAE induced with MOG35-55/CFA/Mtb in wild-type, Nlrp3-/- and Asc-/- mice; assay type: in vivo; conditions: 300 μg Mtb, 0.3×10^5 unit/mouse i.p. every other day, day 0 to 10

Molecule	NLRP3 inflammasome activity in vivo (IL-1β and activated caspase-1 levels) (NLRP3 inflammasome; WT mice with EAE, day 9)	EAE development (passive EAE; Rag2-/- recipients of CD4+ T cells from EAE mice, no adjuvant)	NLRP3 inflammasome activity (IL-1β, caspase-1 p20) (passive EAE; Rag2-/- recipients, splenic macrophages 23 days after T cell transfer)	average number of p47phox foci per cell (NADPH oxidase)	frequency of cells exhibiting p47phox foci (NADPH oxidase)	Vav1 expression (Vav1)	SOCS-1 mRNA expression (SOCS-1)	efficacy of therapy in MS patients who also develop optic neuritis (multiple sclerosis [1])	proportion of MS patients that are non-responders (multiple sclerosis [2])	EAE development (NLRP3-independent EAE)	cellular levels of GTP-Rac1 (Rac1 activation) (GTP-Rac1)	active caspase-1 p20 levels in splenocytes (NLRP3 inflammasome; WT mice 9 days after EAE induction, 0.3×10^5 unit/mouse i.p. every other day)	EAE severity ([3]; Asc-/- mice)	EAE severity ([3]; Nlrp3-/- mice)	EAE severity ([3]; wild-type mice)
B1	suppressed NLRP3 inflammasome activity in vivo	successfully treated	suppression of NLRP3 inflammasome activity	reductions	reductions	downregulating Vav1 expression	increased to a similar degree as IP10 and Mx1	does not work	approximately one-third	does not work	decreases cellular levels of GTP-Rac1	–	–	–	–
B2	–	–	–	–	–	–	–	–	–	–	–	decreased active caspase-1 p20 levels	not ameliorated	not ameliorated	ameliorated EAE

— patent US20120177632A1, “METHODS OF OPTIMIZING DISEASE TREATMENT” (priority 2011, published 2012)
